Earlier results on one substance are cited in patent US20040259937A1, “Hydroxycitric acid complex metal salts, composition, and methods” (INDFRAG LIMITED, priority 2003, published 2004).

For the data set the following is noted: prior art EP 866137.

With “calcium hydroxycitrate [calcium salt of HCA]”, the solubility in water result is given as “insoluble”.
